Earlier results, collected in patent US6548043B1, “Measurement of gastric emptying” (Metabolic Solutions, Inc., priority 1999, dated 2003).

Details: cited from earlier work

Substance: ^13C-sodium octanoate
- water solubility: water soluble
